Measurements reported in PubChem BioAssay AID504466 (National Center for Advancing Translational Sciences (NCATS), 2011).
Values joined by “and” are separate entries in the source; they are usually repeats but may differ in a detail not shown here. Equal values may be shown once. Only a part is listed here, and it is no random draw. Records with an inconclusive call do not appear. Active and inactive are the calls of the source. The call rests on the fitted dose curve; in most records, active means well fitted activation curve with a large enough effect; inconclusive means small, poorly fitted or top-dose-only effect; inactive means no such curve, though single readings can be large or run the other way.

assay: qHTS screen for small molecules that induce genotoxicity in human embryonic kidney (HEK293T) cells expressing luciferase-tagged ELG1; conditions: HEK293T ELG1-luciferase reporter, luminescence, 16 h; at 46 µM (top of the series); further: % of control where 0% means no effect; nearly all actives have a fitted effect of over 60% in size
Text: NIH Molecular Libraries Probe Production Network [MLPCN] NIH Chemical Genomics Center [NCGC] MLPCN Grant: 1 R03 MH092164-01 Assay Provider: Kyungjae Myung, NHGRI, NIH Keywords: MLPCN, qHTS, NCGC, genotoxicity, cancer Assay Overview: Cancer cells divide rapidly compared to normal cells in the body. During cell division, cancer cells need to duplicate their genome by DNA replication. The failure of genome duplication leads to cancer cells' death. Therefore, inhibitors of DNA replication could specifically kill cancer cells. Based on this concept, many chemotherapeutic agents were developed and have been used to treat cancer patients. However, there are a limited number of agents available in the clinical setting, and some of those that do exist have low efficacy and severe side effects. Therefore, if we can find the compounds that effectively block DNA replication either by directly damaging DNA or by inhibiting other cellular mechanisms, the options for cancer treatment will be broadened. With this in mind, we developed a quantitative high-throughput ELG1-luciferase reporter gene assay. Since the level of human ELG1 protein is enhanced in response to genetic stresses, increases in luciferase activity can be used to identify compounds that cause genetic stress.
Assay Protocol Summary: For genotoxicity screening, 2,000 cells in 5 uL/well were dispensed into white, solid-bottom 1536-well plates using a solenoid-based dispenser. Following transfer of 23 nL compound or DMSO vehicle by a pin tool, the plates were incubated 16 hr at 37 °C and 5% CO2. 5 ul ONE-Glo (Promega) was then added to each plate and following a 30 min incubation at room temperature, luciferase activity was quantified on a ViewLux CCD-based plate reader.

SMILES | activity change, positive = activation
COc1ccccc1CNC(=O)COC(=O)C(O)(c1ccccc1)c1ccccc1 | inactive: 0.0207%
O=[As](O)(c1ccccc1Br)c1ccccc1Br | inactive: -1.68%
CC(C)/C=N\N=C(\N)N[N+](=O)[O-] | inactive: 1.45%
CCOP(=O)(Nc1ccc(C)cn1)OCC | inactive: -2.13%
CCOP(=O)(NC(=NC(C)c1ccccc1)NC(C)c1ccccc1)OCC (stereo unspecified) | inactive: 0.796%
CCC1=CC2Cc3nc4ccc(Cl)cc4c(N)c3C(C1)C2 (stereo unspecified) | inactive: -9.33%
O=P1(Nc2ccccn2)COc2ccccc2OC1 | inactive: -0.0383%
CC(C)(C)C(=O)NC(Sc1ncccn1)C(Cl)(Cl)Cl (stereo unspecified) | inactive: -4.37%
Clc1n[nH]nc1-c1nn[nH][15n]1 | inactive: -0.135%
O=P1(Nc2ncccn2)COc2ccccc2OC1 | inactive: 0.857%
O=[As](O)(c1cccs1)c1cccs1 | inactive: 6.59%
Cc1ccc(OCC(=O)OC2CN3CCC2CC3)cc1 (stereo unspecified) | inactive: -1.34%
NS(=O)(=O)c1cccc(NC(=O)COC(=O)C(O)(c2ccccc2)c2ccccc2)c1 | inactive: -0.215%
O=P1(Nc2ccc(Br)cn2)COc2ccccc2OC1 | inactive: 1.36%
Nc1cccc([As](=O)(O)c2ccccc2)c1 | inactive: -0.51%
Cc1ccc(C(=O)OC2CN3CCC2CC3)cc1 (stereo unspecified) | inactive: 1.15%
CC1CCC(C(C)C)C(OP(=O)(Nc2ccccn2)c2ccccc2)C1 (stereo unspecified) | inactive: -6.8%
Cc1nn(-c2ccccc2)c2c1P(=O)(N1CCOCC1)N(C)C(c1ccccc1)=N2 (stereo unspecified) | inactive: 9.87%
O=C(/C=C/c1ccccc1)OC1CN2CCC1CC2 (stereo unspecified) | inactive: 1.83%
CN(C)C1(CNC(=O)c2ccc(S(C)(=O)=O)cc2)CCCCC1 | inactive: 3.42%
NC(=O)Nc1ccc([As](=O)(O)O)cc1 | inactive: 4.61%
O=[N+]([O-])c1ccc2c(c1)nnn2O | inactive: 3.43%
CCOP1(=S)c2c(C)nn(CCC#N)c2N=C(c2ccc(F)cc2)N1C (stereo unspecified) | inactive: 0.704%
CN(C(=O)Cc1ccccc1)[C@@H]1CC[C@]2(CCCO2)C[C@H]1N1CCCC1 | inactive: -6.36%
N#CCCN(C(=O)COC(=O)C(O)(c1ccccc1)c1ccccc1)c1ccc(F)cc1 | inactive: 0.61%
CS(=O)(=O)c1cc([N+](=O)[O-])c2no[n+]([O-])c2c1 | inactive: 1.18%

SMILES | activity change, positive = activation
O=P(Nc1nccs1)(Oc1ccccc1)Oc1ccccc1 | inactive: -2.57%
O=P(Nc1nccs1)(c1ccccc1)c1nc2ccccc2s1 (stereo unspecified) | inactive: 2.55%
CCOP1(=S)c2c(C)nn(CCC#N)c2N=C(c2ccccc2F)N1C (stereo unspecified) | inactive: -4.13%
O=C(O)COc1ccc([As](=O)(O)O)cc1[N+](=O)[O-] | inactive: -2.35%
Nc1ccccc1[As](=O)(O)c1ccccc1 | inactive: -1.76%
CCCOP(=S)(Nc1nc(N)cc(=O)[nH]1)OCCC | inactive: -0.832%
Nc1cccc2c([As](=O)(O)O)cccc12 | inactive: -1.22%
Cc1ccc(NCCc2c([N+](=O)[O-])cc([N+](=O)[O-])cc2[N+](=O)[O-])cc1 | inactive: -3.27%
CCOP(=O)(Nc1cccc2ccccc12)OCC | inactive: 0.845%
COc1cc(C2NCCC3(OCCO3)C2(C)C)cc(OC)c1OC (stereo unspecified) | inactive: -0.331%
CS(=O)(=O)c1ccc(Cl)c(NC(=O)COC(=O)C(O)(c2ccccc2)c2ccccc2)c1 | inactive: -8.39%
O=[As](O)(O)c1cccnc1 | inactive: -0.437%
COc1cc(C(=O)NCC2(N3CCOCC3)CCCCC2)cc(Cl)c1OC(C)C | inactive: -5.09%
O=C(OC1CN2CCC1CC2)c1ccc(Cl)cc1 (stereo unspecified) | inactive: 1.4%
O=[As](O)(c1cccc(O)c1)c1cccc(O)c1 | inactive: -1.83%
COc1ccc(N/C(=N/P(=O)(N2CCOCC2)N2CCOCC2)N2CCOCC2)cc1 | inactive: 1.94%
Cc1cc(=O)[nH]c(N[N+](=O)[O-])n1 | inactive: 2.15%
O=C(OC1CN2CCC1CC2)C12CC3CC(CC(C3)C1)C2 (stereo unspecified) | inactive: -2.7%
Cc1c2c(nc3ccccc13)SC(C(Cl)Cl)C2 (stereo unspecified) | inactive: 4.98%
COc1cc(I)ccc1[As](=O)(O)O | inactive: -1.72%
COc1ccc2nc(NP(=O)(c3ccccc3)c3ccccc3)sc2c1 | inactive: -10.3%
CC(C)c1ccc(OP(=O)(Nc2ccccn2)Oc2ccccc2F)cc1 (stereo unspecified) | inactive: -8.61%
ClCCSc1nnc(-c2cccnc2)o1 | inactive: 8.23%
O=[N+]([O-])c1cc([N+](=O)[O-])c(-c2ccn[nH]2)s1 | inactive: -8.36%
CC(C)NC(=O)NP(=O)(Oc1ccccc1)Oc1ccccc1 | inactive: 0.157%
CCN(CC)C(=S)SC(NC=O)C(Cl)(Cl)Cl (stereo unspecified) | inactive: -0.433%

SMILES | activity change, positive = activation
COc1cc(C(=O)NCC2(N3CCOCC3)CCCCC2)ccc1OCC(C)C | inactive: -1.78%
C[As](=O)(O)c1cccc(C(=O)O)c1 | inactive: 2.96%
O=[As](O)(c1ccc(O)cc1)c1ccccc1O | inactive: 0.83%
Cc1ccc2nc3c(c(C)c2c1)CC(C(Cl)Cl)S3 (stereo unspecified) | inactive: 12.1%
Cc1ccc(OP(=O)(Nc2ccc([N+](=O)[O-])cn2)Oc2ccc(C)cc2)cc1 | inactive: 0.369%
CCOC(=O)Nc1cccc([As](=O)(O)O)c1 | inactive: 2.74%
O=[N+]([O-])c1ccc(Nc2ccc(Oc3ccc([N+](=O)[O-])cc3[N+](=O)[O-])cc2)c([N+](=O)[O-])c1 | inactive: 3.81%
Cc1cc(SC(NC=O)C(Cl)(Cl)Cl)ncn1 (stereo unspecified) | inactive: -6.32%
O=P(Nc1ccccn1)(c1cccc2ccccc12)c1cccc2ccccc12 | inactive: -0.133%
CCOC(=O)Nc1ccc([As](=O)(O)O)c(O)c1 | inactive: -1.11%
Cc1cc(SC(NC(=O)c2ccccc2)C(Cl)(Cl)Cl)nc(C(C)C)n1 (stereo unspecified) | inactive: 1.84%
CCCCOc1ccc(C(=O)NCC2(N3CCCCC3)CCCCC2)cc1OC | inactive: -0.0513%
O=C(OC1CN2CCC1CC2)c1cccc([N+](=O)[O-])c1 (stereo unspecified) | inactive: 1.79%
CCC(C)N(CC(C)C)C(=S)SC(NC(C)=O)C(Cl)(Cl)Cl (stereo unspecified) | inactive: 0.535%
COP1(=S)c2c(C)nn(CCC#N)c2N=C(c2ccc(F)cc2)N1C (stereo unspecified) | inactive: -0.877%
O=C(Nc1ccncc1[N+](=O)[O-])c1ccc([N+](=O)[O-])cc1[N+](=O)[O-] | inactive: -14.9%
O=C(COc1ccccc1)OC1CN2CCC1CC2 (stereo unspecified) | inactive: -0.185%
Nc1ccc([As](=O)(O)c2ccc(N)cc2)cc1 | inactive: 0.0692%
CCN(/C(=N/P(=O)(N1CCOCC1)N1CCOCC1)N1CCOCC1)c1ccc(OC)cc1 | inactive: 1.09%
CN(C)C(=O)OCCc1n(C)cc[n+]1C | inactive: -1.59%
CC(C)=N/N=C(\N)N[N+](=O)[O-] | inactive: 0.0255%
CC1CCN(C(=O)Oc2c(Cl)cc(Cl)c3cccnc23)CC1 | inactive: -0.44%
COc1ccc(C2=NCC(CBr)S2)cc1 (stereo unspecified) | inactive: 0.131%
CC(=O)N1C2C3N(C(C)=O)C1C1N(C(C)=O)C(C(N1C(C)=O)N3C(C)=O)N2C(C)=O | inactive: 0.617%
O=[N+]([O-])c1cccc2n[nH]nc12 | inactive: 1.51%
O=[N+]([O-])c1cc([N+](=O)[O-])c(CCNc2ccccc2)c([N+](=O)[O-])c1 | inactive: -8.68%

SMILES | activity change, positive = activation
Cc1ccc(NP(=O)(Oc2ccccc2)Oc2ccccc2)nc1 | inactive: -2.89%
CC(C)(C)C(=O)NC(Sc1ccncn1)C(Cl)(Cl)Cl (stereo unspecified) | inactive: -2.1%
O=[N+]([O-])c1ncn(CCn2ncnc2[N+](=O)[O-])n1 | inactive: 0.608%
O=[N+]([O-])c1cccc(NC2=NCC(CBr)S2)c1 (stereo unspecified) | inactive: -6.91%
O=C(O)CNc1ccc([As](=O)(O)O)cc1 | inactive: -1.55%
O=C(Nc1cc([As](=O)(O)O)ccc1O)c1ccccc1 | inactive: -9.65%
O=[N+]([O-])c1cc([N+](=O)[O-])c(CCN2CCOCC2)c([N+](=O)[O-])c1 | inactive: -10.9%
CCN(N=Nc1nonc1N)c1nonc1N | inactive: -6.21%
Nc1cccc2ccc([As](=O)(O)O)cc12 | inactive: 0.345%
CC(=O)Nc1ccc([As](=O)(O)O)cc1 | inactive: -4.12%
O=C(O)c1ccccc1[As](=O)(O)O | inactive: -1.53%
O=P(Nc1nc2ccc(Cl)cc2s1)(c1ccccc1)c1ccccc1 | inactive: -10.2%
Cc1ccc(NP(=O)(Oc2ccccc2F)Oc2ccccc2F)nc1 | inactive: 2.44%
Cc1cc(SC(NC(=O)c2ccc(F)cc2)C(Cl)(Cl)Cl)ncn1 (stereo unspecified) | inactive: -2.67%
CCOP(=O)(Nc1ccccc1)OCC | inactive: 0.939% and inactive: -3.9%
Nc1cc(N)c2nonc2c1[N+](=O)[O-] | inactive: -1.35%
CC(C)CC(=O)NC(Sc1ccc(Cl)cc1)C(Cl)(Cl)Cl (stereo unspecified) | inactive: -0.129%
O=C(NC(Sc1ccncn1)C(Cl)(Cl)Cl)c1ccccc1 (stereo unspecified) | inactive: 0.497%
Cc1c2non([O-])c-2c(C)[n+](=O)[n+]1[O-] | inactive: -39.4%
Oc1ccccc1CNc1ccccn1 | inactive: 8.97%
NC(=O)c1cc([N+](=O)[O-])cc([N+](=O)[O-])c1N | inactive: -7.26%
Cc1ccc(N/C(=N/P(=O)(N2CCOCC2)N2CCOCC2)N2CCOCC2)cc1 | inactive: 4.86%
CN(C(=O)Cc1ccc(Cl)c(Cl)c1)[C@H]1CCCC[C@H]1N1CCCC1 | inactive: -7.74%
